Test results taken from US20250360145A1 (published 2025).

By UniProt entry, the sequences of proteins in these tests, tags left out. Residues count along the entry.
UniProt P07333, 20-972: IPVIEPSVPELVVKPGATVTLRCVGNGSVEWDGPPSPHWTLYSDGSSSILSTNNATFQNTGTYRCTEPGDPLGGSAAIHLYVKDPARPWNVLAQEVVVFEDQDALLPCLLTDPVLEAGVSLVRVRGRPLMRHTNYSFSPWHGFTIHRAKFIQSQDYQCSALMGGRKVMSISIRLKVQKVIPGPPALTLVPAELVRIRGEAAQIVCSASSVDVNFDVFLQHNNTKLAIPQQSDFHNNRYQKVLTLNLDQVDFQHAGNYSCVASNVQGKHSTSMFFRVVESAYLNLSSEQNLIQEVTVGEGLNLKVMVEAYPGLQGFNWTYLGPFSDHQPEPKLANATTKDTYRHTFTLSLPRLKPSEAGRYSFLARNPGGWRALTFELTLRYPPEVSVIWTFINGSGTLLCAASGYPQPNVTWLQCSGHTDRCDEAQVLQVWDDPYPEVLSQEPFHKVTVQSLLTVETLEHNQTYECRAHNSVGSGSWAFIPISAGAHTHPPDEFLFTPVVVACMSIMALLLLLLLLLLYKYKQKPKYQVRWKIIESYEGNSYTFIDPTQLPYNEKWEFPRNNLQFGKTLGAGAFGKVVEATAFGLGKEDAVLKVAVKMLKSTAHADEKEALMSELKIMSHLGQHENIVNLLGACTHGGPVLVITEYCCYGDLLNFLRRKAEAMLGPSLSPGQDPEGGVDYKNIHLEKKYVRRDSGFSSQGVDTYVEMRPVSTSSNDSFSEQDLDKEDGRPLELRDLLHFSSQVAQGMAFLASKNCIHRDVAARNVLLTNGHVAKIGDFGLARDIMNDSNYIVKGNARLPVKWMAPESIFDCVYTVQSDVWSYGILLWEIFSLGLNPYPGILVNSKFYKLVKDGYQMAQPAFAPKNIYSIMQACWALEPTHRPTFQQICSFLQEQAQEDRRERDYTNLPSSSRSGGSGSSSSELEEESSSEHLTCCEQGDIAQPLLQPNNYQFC

Biological target: CSF-1R (Homo sapiens (Human), UniProt P07333)
Assay: Biochemical HTRF kinase assay, CSF-1R;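 also: enzyme incubated with inhibitor plus a substrate and ATP mix for one hour at room temperature before HTRF detection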
Details: read-out: CSF-1R IC50

COc1ccc(COc2ncc(Cc3ccnc4cc(Cl)cnc34)cc2OC)nc1 [Example 62, 3-chloro-8-((5-methoxy-6-((5-methoxypyridin-2-yl)methoxy)pyridin-3-yl)methyl)-1,5-naphthyridine]
IC50: 10.9 nM
